Data from patent US20160368960A1.

Biological target: rat GLP-1-R (rat) (UniProt P32301)
Test: cell-based or functional assay

EC50 (nM), cAMP production in INS1 832-3 cells: 5.8 nM
Substance: Semaglutide (peptide)
